In PubChem BioAssay AID588664 (The Scripps Research Institute Molecular Screening Center, 2011) one finds inhibition data, which are given here for 26 molecules.

Chains of the proteins cited; added tags and fusions are not shown.
UniProt P00519, whole entry, looked up: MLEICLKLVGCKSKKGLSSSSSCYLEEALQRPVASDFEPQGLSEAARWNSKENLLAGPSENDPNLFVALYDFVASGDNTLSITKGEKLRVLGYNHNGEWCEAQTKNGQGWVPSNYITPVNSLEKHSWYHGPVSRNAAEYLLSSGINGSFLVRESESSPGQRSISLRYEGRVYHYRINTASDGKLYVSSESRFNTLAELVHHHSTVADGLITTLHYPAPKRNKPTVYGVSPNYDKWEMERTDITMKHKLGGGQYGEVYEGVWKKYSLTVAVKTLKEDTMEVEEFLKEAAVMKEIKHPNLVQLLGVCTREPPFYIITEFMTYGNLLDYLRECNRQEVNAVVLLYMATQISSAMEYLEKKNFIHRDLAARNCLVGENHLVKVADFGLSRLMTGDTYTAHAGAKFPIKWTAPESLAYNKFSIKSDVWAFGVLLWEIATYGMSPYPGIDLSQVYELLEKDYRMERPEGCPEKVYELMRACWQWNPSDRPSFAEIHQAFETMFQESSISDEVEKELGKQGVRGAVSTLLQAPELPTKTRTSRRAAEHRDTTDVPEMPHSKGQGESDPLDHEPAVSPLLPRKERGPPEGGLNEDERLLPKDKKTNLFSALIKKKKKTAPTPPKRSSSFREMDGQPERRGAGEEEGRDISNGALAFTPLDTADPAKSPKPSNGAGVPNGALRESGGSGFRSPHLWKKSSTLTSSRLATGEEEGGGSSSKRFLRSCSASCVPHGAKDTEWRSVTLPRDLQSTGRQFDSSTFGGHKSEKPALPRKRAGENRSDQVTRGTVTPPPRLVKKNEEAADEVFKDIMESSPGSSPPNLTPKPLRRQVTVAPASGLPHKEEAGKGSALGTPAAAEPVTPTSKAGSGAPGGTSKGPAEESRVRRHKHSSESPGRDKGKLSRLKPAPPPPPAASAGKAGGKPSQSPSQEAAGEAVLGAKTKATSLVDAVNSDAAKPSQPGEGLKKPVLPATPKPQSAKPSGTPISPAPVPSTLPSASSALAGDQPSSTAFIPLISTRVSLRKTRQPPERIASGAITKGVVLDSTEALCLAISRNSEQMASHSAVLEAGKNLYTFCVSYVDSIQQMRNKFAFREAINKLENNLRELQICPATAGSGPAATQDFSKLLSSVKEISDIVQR
UniProt Q13671, whole entry, looked up: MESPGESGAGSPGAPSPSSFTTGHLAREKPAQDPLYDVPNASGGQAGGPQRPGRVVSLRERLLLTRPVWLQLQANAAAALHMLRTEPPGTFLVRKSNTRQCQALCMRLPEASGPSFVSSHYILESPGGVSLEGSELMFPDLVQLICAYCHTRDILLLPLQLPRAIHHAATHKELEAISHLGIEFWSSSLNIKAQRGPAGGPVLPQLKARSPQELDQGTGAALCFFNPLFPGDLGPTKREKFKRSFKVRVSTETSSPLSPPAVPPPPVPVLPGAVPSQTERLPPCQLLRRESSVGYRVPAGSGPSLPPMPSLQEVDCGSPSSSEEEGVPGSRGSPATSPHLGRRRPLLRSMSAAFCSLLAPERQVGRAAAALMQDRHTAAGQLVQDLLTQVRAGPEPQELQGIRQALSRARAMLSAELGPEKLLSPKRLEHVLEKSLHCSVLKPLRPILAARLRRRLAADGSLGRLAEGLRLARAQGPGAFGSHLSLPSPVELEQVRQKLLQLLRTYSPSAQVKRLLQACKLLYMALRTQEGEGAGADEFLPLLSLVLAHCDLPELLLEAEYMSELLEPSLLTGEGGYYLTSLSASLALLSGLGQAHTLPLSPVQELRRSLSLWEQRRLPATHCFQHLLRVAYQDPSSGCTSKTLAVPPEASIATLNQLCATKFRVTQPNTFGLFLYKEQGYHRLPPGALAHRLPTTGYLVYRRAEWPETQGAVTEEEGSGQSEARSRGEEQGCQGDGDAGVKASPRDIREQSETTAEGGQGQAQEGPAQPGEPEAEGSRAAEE

This is a selection; strong and weak results do not stand in their true shares. Some tests of the compounds listed are not included; inactive here does not mean inactive elsewhere. Calls of active or inactive are those of the source. Rule as the data show it: active = inhibition above about 5% (passing the limit was not always enough); inactive = the rest.

By inhibition is commonly meant the change of the read-out against control, counted positive when it falls.

In the test the target is Tyrosine-protein kinase ABL1 (Homo sapiens) + Ras and Rab interactor 1 (Homo sapiens) (UniProt P00519+Q13671). The test can be described thus: disruptors of human Abl and Rin1 association – biochemical, TR-FRET, primary screen (AID 588664). To be noted: TR-FRET Rin1/Abl binding, at 7.35 µM, stronger effect = higher value. A general note: TR-FRET usually uses a lanthanide donor and a delayed reading to cut background.
`COc1ccc(Br)c(C(=O)NCC2(N3CCCCC3)CCCCC2)c1`: the inhibition is inactive: -6.08%.
Regarding `C=C(C)C#CC(O)(C(=O)OC1CCN(C)CC1)c1ccccc1` (stereo unspecified), the inhibition is inactive: -1.16%.
With `CN(C)c1cccc(C(=O)NCC2(N(C)C)CCCCC2)c1` the figure was inactive: -0.69%; with `O=C(OCCN1CCCC1)C(O)(c1ccccc1)c1ccccc1`, inactive: 2.81%.
The result for `CC(C)Oc1ccc(C(=O)NCC2(N(C)C)CCCCC2)cc1` reads inactive: 4.82%; that for `O=C(OC1CN2CCC1CC2)C(CO)(c1ccccc1)c1ccccc1` (stereo unspecified), inactive: 0.86%.
With `COc1ccc(Cl)cc1C(=O)NCC1(N(C)C)CCCCC1` the figure was inactive: 3.07%; with `COc1cccc(C(=O)NCC2(N3CCCCC3)CCCCC2)c1`, inactive: -1.98%.
With `O=C(NCC1(N2CCCCC2)CCCCC1)c1cccc(Cl)c1`, the inhibition is inactive: 0.13%.
The result for `CN(C)C1(CNC(=O)c2ccc(Br)cc2)CCCCC1` reads inactive: 0.11%; that for `COc1cc(C(=O)NCC2(N(C)C)CCCCC2)c([N+](=O)[O-])cc1OC`, inactive: 2.21%.
Regarding `O=C(NCC1(N2CCCCC2)CCCCC1)c1cc(F)c(F)cc1Cl`, the inhibition was inactive: 0.9%.
As for `C=CCN1CCN(CCOC(=O)C(O)(c2ccccc2)c2ccccc2)CC1`, the inhibition is inactive: 1.26%.
On to `O=C(NCC1(N2CCCCC2)CCCCC1)c1cccc(Br)c1`, for which the inhibition is inactive: 2.35%.
`Cc1cc(C(=O)NCC2(N3CCCCC3)CCCCC2)ccc1[N+](=O)[O-]`: the inhibition is inactive: -3.29%.
The result for `CCN1CCCC(OC(=O)C2(O)c3ccccc3C=Cc3ccccc32)C1` (stereo unspecified) reads inactive: -1.64%.
Take `COc1ccc(C(=O)NCC2(N(C)C)CCCCC2)cc1`: the inhibition is inactive: 3.07%.
With `CN(C)C1CCCC1OC(=O)C(O)(c1ccccc1)c1ccccc1` (stereo unspecified) the figure was inactive: -2.53%; with `CN(C)c1ccc(C(=O)NCC2(N(C)C)CCCCC2)cc1`, inactive: 0.44%; with `Cc1ccccc1C(=O)NCC1(N2CCCCC2)CCCCC1`, inactive: 2.11%.
With `CC(C)N1C(=O)CC2(CCN(CCOC(=O)C(O)(c3ccccc3)c3ccccc3)CC2)C1=O` the figure was inactive: 0.7%; with `COc1cc(SC)ccc1C(=O)NCC1(N(C)C)CCCCC1`, inactive: -2.11%.
Turning to `CCN(CC)CC(C)C(C)OC(=O)C(O)(c1ccccc1)c1ccccc1` (stereo unspecified), the inhibition was inactive: -3.33%.
The result for `Cc1ccc(C(=O)NCC2(N3CCCCC3)CCCCC2)cc1` reads inactive: 0.22%.
In the case of `O=C(NCC1(N2CCCCC2)CCCCC1)c1cc([N+](=O)[O-])ccc1Cl`, the inhibition was inactive: -0.8%.
Turning to `CN1[C@@H]2CC[C@H]1CC(OC(=O)C(O)(c1ccccc1)c1ccccc1)C2` (stereo partly specified), the inhibition was inactive: -1.3%.
